Literature values as cited in patent publication US20190365694A1, “COMPOSITION OF MATTER AND USE THEREOF FOR PREVENTING AND TREATING MOTION SICKNESS” (GT BIOPHARMA, INC., priority 2016, published 2019).

Test system: muscarinic receptors
Details: in vitro, guinea pig bladder and ileum

CCN(CC)CC#CCOC(=O)[C@](O)(c1ccccc1)C1CCCCC1 [R-oxybutynin, (R)-4-diethylaminobut-2-ynyl 2-cyclohexyl-2-hydroxy-2-phenylethanoate]
affinity for muscarinic receptors relative to S-oxybutynin: significantly higher
